Measured values as given in patent EP3498273A1, “PHARMACEUTICAL COMPOSITION FOR MODULATING THE RESPONSE OF A GABA-A RECEPTOR” (Universität Wien, priority 2017, dated 2019).

Sequences of proteins named here, by UniProt entry; tags and fusion partners are left off. A change or cut given only in a name is not applied to a line headed by its entry.
UniProt P14867: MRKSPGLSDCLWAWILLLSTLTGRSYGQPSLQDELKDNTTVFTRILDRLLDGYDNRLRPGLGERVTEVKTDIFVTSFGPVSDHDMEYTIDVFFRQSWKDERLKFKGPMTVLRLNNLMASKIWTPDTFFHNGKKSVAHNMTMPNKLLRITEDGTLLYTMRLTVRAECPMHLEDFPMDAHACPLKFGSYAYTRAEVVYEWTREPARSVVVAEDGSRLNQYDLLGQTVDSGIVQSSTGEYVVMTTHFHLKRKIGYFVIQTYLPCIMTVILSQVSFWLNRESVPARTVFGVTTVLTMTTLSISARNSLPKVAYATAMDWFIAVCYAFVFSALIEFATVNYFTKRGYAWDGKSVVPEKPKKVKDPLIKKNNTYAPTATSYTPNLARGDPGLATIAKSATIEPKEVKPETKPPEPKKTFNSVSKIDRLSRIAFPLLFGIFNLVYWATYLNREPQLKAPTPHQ
UniProt P28472: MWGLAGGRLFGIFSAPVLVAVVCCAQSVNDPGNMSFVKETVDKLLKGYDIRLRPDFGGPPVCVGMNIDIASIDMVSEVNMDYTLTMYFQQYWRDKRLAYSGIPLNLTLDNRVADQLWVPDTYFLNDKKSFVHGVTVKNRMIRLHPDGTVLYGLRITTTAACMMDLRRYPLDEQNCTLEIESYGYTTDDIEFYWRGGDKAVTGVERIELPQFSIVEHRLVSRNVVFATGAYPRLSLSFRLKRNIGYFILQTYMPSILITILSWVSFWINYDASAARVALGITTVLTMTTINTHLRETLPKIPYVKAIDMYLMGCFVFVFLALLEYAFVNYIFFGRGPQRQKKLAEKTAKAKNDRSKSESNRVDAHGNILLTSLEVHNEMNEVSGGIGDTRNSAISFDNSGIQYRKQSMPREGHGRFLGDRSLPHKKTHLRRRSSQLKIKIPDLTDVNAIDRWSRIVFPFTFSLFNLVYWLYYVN

Target: GABAA receptors composed of α1β3γ2S subunits (Homo sapiens, UniProt P14867+P28472)
Test: Two-microelectrode voltage clamp: enhancement of GABA-induced chloride currents (IGABA) through receptors expressed in Xenopus laevis oocytes
Details: Table 6, α1β3γ2s; maximal IGABA enhancement; unit not given

## CC(=C(C#N)C#N)c1ccc(Cl)cc1Cl
  Emax: 1931 ± 324
